# Molecular target: T1, melanocortin-1 receptor (MC1R) (Homo sapiens, UniProt Q01726)
# Protein sequences, listed by entry. Tags and fused reporters are not part of them. Lines headed by an entry give the natural chain unless they say otherwise; changes in a name come on top.
# UniProt Q01726: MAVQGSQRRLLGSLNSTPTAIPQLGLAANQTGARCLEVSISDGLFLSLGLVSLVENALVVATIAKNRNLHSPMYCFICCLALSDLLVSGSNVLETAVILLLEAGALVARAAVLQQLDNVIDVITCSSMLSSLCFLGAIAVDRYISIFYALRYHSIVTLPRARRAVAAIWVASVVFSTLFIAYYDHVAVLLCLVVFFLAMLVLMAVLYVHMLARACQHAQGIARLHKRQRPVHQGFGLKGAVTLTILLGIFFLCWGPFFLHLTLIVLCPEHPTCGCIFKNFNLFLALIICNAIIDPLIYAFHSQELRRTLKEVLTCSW
# T1 construct: expressed in transfected cells
# Assay: Agarose lawn reporter assay, CHO-6xCRE-luc+ cells expressing MC1 receptor
# Format: cell-based
substance,measurement,setting,value
4-L-norleucine-7-D-phenylalanine-alpha melanocyte stimulating hormone [[NDP]-α-MSH],effect of ultraviolet light exposure on the response to the peptide,"UV 365 nm for 0 to 32 minutes before peptide, FIG. 9",did not significantly affect the response
same,concentration-response curve of luminescence activity,"approximately 10 nl of 5×10^−4 M to 1.5×10^−6 M peptide solution on lawn by HDR pin tool, 4 hours at 37° C., FIGS. 5A-5B",concentration-response curve of luminescence activity was only observed when peptide was applied to the cell line expressing the appropriate receptor
same,maximal response value (z value minus background z value),"concentration curve from FIG. 10E (lawn exposed to UV 10 minutes), FIG. 11A",approximately 25

# Source: patent US20080009019A1, “HIGH THROUGHPUT METHOD FOR SCREENING CANDIDATE COMPOUNDS FOR BIOLOGICAL ACTIVITY” (SmithKline Beecham Corporation, priority 2001, published 2008)
